Source: patent publication US20200270237A1 (priority 2017, published 2020)

The chains behind the UniProt entries cited, without tags or fusion partners.
UniProt P35372, whole entry, looked up: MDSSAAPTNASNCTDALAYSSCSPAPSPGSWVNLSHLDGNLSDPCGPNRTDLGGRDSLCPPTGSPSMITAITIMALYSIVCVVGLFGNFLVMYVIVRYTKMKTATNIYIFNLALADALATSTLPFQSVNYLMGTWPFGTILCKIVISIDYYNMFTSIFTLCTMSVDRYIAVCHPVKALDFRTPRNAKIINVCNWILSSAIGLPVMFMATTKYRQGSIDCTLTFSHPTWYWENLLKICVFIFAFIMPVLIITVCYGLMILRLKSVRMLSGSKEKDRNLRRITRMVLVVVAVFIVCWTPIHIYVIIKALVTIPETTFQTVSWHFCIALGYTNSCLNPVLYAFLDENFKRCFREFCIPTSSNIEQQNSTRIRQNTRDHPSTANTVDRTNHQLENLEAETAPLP

Target: human μ-opioid receptor (Homo sapiens, UniProt P35372)
Conditions: read-out: MU Ki nM; Table 2 (dual compounds); CHO-K1 membranes, 1 nM [3H]-DAMGO

| SMILES | Ki |
| --- | --- |
| CNCCC(Oc1cccc(N2CCC(c3ccccc3)(N(C)C)CC2)c1)c1cccs1 (centres unmarked) [Example 43, N,N-dimethyl-1-(3-(3-(methylamino)-1-(thiophen-2-yl)propoxy)phenyl)-4-phenylpiperidin-4-amine] | 500 to 1000 nM |
| CNCCC(Oc1cccc(C(=O)N2CCC(c3ccccc3)(N(C)C)CC2)c1)c1cccs1 (centres unmarked) [Example 7, (4-(Dimethylamino)-4-phenylpiperidin-1-yl)(3-(3-(methylamino)-1-(thiophen-2-yl)propoxy)phenyl)methanone] | 500 to 1000 nM |
| CNCC[C@H](OCc1cccc(CN2CCC(c3cccc(O)c3)(N(C)C)CC2)c1)c1cccs1 [Example 23, (S)-3-(4-(dimethylamino)-1-(3-((3-(methylamino)-1-(thiophen-2-yl)propoxy)methyl)benzyl)piperidin-4-yl)phenol] | < 100 nM |
| CNCC[C@@H](OCc1cccc(CN2CCC(c3ccccc3)(N(C)C)CC2)c1)c1cccs1 [Example 22, (R)-N,N-dimethyl-1-(3-((3-(methylamino)-1-(thiophen-2-yl)propoxy)methyl)benzyl)-4-phenylpiperidin-4-amine] | 100 to 500 nM |
| CNCC[C@@H](Oc1cccc(CN2CCC(c3cccc(O)c3)(N(C)C)CC2)c1)c1cccs1 [Example 17, (R)-3-(4-(dimethylamino)-1-(3-(3-(methylamino)-1-(thiophen-2-yl)propoxy)benzyl)piperidin-4-yl)phenol] | < 100 nM |
| CNCCC(Oc1ccc(CN2CCC(c3ccccc3)(N(C)C)CC2)cc1)c1cccs1 (centres unmarked) [Example 51, N,N-dimethyl-1-(4-(3-(methylamino)-1-(thiophen-2-yl)propoxy)benzyl)-4-phenylpiperidin-4-amine] | 100 to 500 nM |
| CNCCC(Oc1cccc(CN2CCC(c3ccccc3)(N(C)C)CC2)c1)c1cccs1 (centres unmarked) [Example 2, N,N-dimethyl-1-(3-(3-(methylamino)-1-(thiophen-2-yl)propoxy)benzyl)-4-phenylpiperidin-4-amine] | < 100 nM |
| CNCC[C@@H](OCc1cccc(CN2CCC(c3cccc(O)c3)(N(C)C)CC2)c1)c1cccs1 [Example 24, (R)-3-(4-(dimethylamino)-1-(3-((3-(methylamino)-1-(thiophen-2-yl)propoxy)methyl)benzyl)piperidin-4-yl)phenol] | < 100 nM |
| CNCCC(Oc1ccc(CN2CCCc3ccccc32)c(F)c1)c1cccs1 (centres unmarked) [Example 54, 3-(4-((3,4-Dihydroquinolin-1(2H)-yl)methyl)-3-fluorophenoxy)-N-methyl-3-(thiphen-2-yl)propan-1-amine] | < 100 nM |
| CNCC[C@@H](Oc1cccc(CN2CCC(c3ccccc3)(N(C)C)CC2)c1)c1cccs1 [Example 16, (R)-N,N-dimethyl-1-(3-(3-(methylamino)-1-(thiophen-2-yl)propoxy)benzyl)-4-phenylpiperidin-4-amine] | 100 to 500 nM |
| CNCCC(Oc1cccc(CN2CCC(c3cccc(O)c3)(N(C)C)CC2)c1)c1cccs1 (centres unmarked) [Example 5, 3-(4-(Dimethylamino)-1-(3-(3-(methylamino)-1-(thiophen-2-yl)propoxy)benzyl)piperidin-4-yl)phenol] | < 100 nM |
| CNCCC(Oc1ccc(CN2CCc3ccccc3C2)c(F)c1)c1cccs1 (centres unmarked) [Example 55, 3-(4-((3,4-Dihydroisoquinolin-2(1H)-yl)methyl)-3-fluorophenoxy)-N-methyl-3-(thiophen-2-yl)propan-1-amine] | < 100 nM |
| CNCCC(Oc1cccc(CN2CCC(c3cccc(O)c3)CC2)c1)c1cccs1 (centres unmarked) [Example 3, 3-(1-(3-(3-(Methylamino)-1-(thiophen-2-yl)propoxy)benzyl)piperidin-4-yl)phenol] | 100 to 500 nM |
| CNCC[C@H](OCc1cccc(CN2CCC(c3ccccc3)(N(C)C)CC2)c1)c1cccs1 [Example 21, (S)-N,N-dimethyl-1-(3-((3-(methylamino)-1-(thiophen-2-yl)propoxy)methyl)benzyl)-4-phenylpiperidin-4-amine] | 100 to 500 nM |
| CNCC[C@H](Oc1cccc(CN2CCC(c3cccc(O)c3)(N(C)C)CC2)c1)c1cccs1 [Example 14, (S)-3-(4-(dimethylamino)-1-(3-(3-(methylamino)-1-(thiophen-2-yl)propoxy)benzyl)piperidin-4-yl)phenol] | < 100 nM |
| CNCC[C@H](Oc1cccc(CN2CCC(c3ccccc3)(N(C)C)CC2)c1)c1cccs1 [Example 15, (S)-N,N-dimethyl-1-(3-(3-(methylamino)-1-(thiophen-2-yl)propoxy)benzyl)-4-phenylpiperidin-4-amine] | < 100 nM |
| CNCCC(OCc1cccc(CN2CCC(c3ccccc3)(N(C)C)CC2)c1)c1cccs1 (centres unmarked) [Example 20, N,N-dimethyl-1-(3-((3-(methylamino)-1-(thiophen-2-yl)propoxy)methyl)benzyl)-4-phenylpiperidin-4-amine] | 100 to 500 nM |
